The target in one assay is T1, CRF2R (Homo sapiens, UniProt Q13324).
T1 sequence (Q13324 1-411): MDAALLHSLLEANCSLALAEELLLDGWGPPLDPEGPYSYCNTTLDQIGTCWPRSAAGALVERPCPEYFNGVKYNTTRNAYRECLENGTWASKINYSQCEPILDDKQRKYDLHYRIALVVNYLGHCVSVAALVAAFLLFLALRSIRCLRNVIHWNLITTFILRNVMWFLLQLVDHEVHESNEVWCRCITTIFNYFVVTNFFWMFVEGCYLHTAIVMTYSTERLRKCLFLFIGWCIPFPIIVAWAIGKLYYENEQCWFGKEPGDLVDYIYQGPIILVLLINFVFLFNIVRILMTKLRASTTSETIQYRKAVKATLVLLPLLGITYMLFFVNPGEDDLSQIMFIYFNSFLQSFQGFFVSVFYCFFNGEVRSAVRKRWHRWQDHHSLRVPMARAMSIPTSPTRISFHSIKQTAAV
Put plainly: CRF2R agonist activity (EC50 and Emax), called comparative CRF binding. Format: cell-based. The conditions noted are these: CRF2R EC50 (nM), CRF2R. In a few lines: (§1)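 Agonism is scored by Gαs-driven cAMP rise in cells carrying CRF1R or CRF2R alone, with vehicle-treated cells as control.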

For the next assay, the target named is T2, CRF1R (Homo sapiens, UniProt P34998).
T2 sequence (P34998 24-415): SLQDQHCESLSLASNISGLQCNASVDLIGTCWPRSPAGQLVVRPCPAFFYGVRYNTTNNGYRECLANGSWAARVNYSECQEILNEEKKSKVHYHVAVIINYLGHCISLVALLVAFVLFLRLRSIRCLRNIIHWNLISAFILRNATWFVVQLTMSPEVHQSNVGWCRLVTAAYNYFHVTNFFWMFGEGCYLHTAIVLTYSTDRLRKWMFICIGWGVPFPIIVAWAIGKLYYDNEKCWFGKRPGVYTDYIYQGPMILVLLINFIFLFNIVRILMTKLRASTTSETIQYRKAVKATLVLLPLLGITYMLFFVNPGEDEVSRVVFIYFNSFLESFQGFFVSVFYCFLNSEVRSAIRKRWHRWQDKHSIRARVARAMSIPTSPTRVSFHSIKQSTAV
Put plainly: CRF1R agonist activity (EC50 and Emax), called comparative CRF binding. Format: cell-based. The conditions noted are these: CRF1R EC50 (nM), CRF1R. A digest of the protocol:
as §1

As for `CC[C@H](C)[C@H](NC(=O)[C@@H](NC(=O)[C@H](CC(=O)O)NC(=O)[C@H](CC(C)C)NC(=O)[C@H](CC(C)C)NC(=O)[C@H](CC(C)C)NC(=O)[C@H](CCCNC(=N)N)NC(=O)[C@H](CC(N)=O)NC(=O)[C@H](CC(N)=O)NC(=O)[C@H](C)NC(=O)[C@H](C)NC(=O)[C@H](CCC(N)=O)NC(=O)[C@H](CCC(N)=O)NC(=O)[C@H](CCCCN)NC(=O)[C@H](CCC(=O)O)NC(=O)[C@H](CCCCN)NC(=O)[C@H](CCC(=O)O)NC(=O)[C@H](CCC(N)=O)NC(=O)[C@H](CCCCN)NC(=O)[C@H](CCC(=O)O)NC(=O)[C@@H](NC(=O)[C@H](CCC(=O)O)NC(=O)[C@@H](NC(=O)[C@H](CCSC)NC(=O)[C@H](CCCCN)NC(=O)[C@H](CCCNC(=N)N)NC(=O)[C@H](CC(C)C)NC(=O)[C@H](CC(C)C)NC(=O)[C@H](Cc1c[nH]cn1)NC(=O)[C@H](Cc1ccccc1)NC(=O)[C@@H]1CCCN1C(=O)[C@H](CC(C)C)NC(=O)[C@H](CC(=O)O)NC(=O)[C@@H](NC(=O)[C@H](CO)NC(=O)[C@@H](NC(=O)[C@@H]1CCCN1C(=O)[C@@H]1CCCN1C(=O)CNC(=O)[C@@H]1CCC(=O)N1)[C@@H](C)CC)[C@@H](C)CC)[C@@H](C)CC)[C@@H](C)CC)[C@@H](C)O)C(N)=O` [compound 69], the results for the EC50 on CRF2R and on CRF1R were 5.85 nM and 34.5 nM, respectively.
The like results for `CC[C@H](C)[C@H](NC(=O)[C@@H](NC(=O)[C@H](CC(=O)O)NC(=O)[C@H](CC(C)C)NC(=O)[C@H](CC(C)C)NC(=O)[C@H](CC(C)C)NC(=O)[C@H](CCCNC(=N)N)NC(=O)[C@H](CC(N)=O)NC(=O)[C@H](CC(N)=O)NC(=O)[C@H](C)NC(=O)[C@H](C)NC(=O)[C@H](CCC(N)=O)NC(=O)[C@H](CCC(N)=O)NC(=O)[C@H](CCCCN)NC(=O)[C@H](CCC(=O)O)NC(=O)[C@H](CCCCN)NC(=O)[C@H](CCC(=O)O)NC(=O)[C@H](CCC(N)=O)NC(=O)[C@H](CCCCN)NC(=O)[C@H](CCC(=O)O)NC(=O)[C@@H](NC(=O)[C@H](CCC(=O)O)NC(=O)[C@@H](NC(=O)[C@H](CCSC)NC(=O)[C@H](CCCCN)NC(=O)[C@H](CCCNC(=N)N)NC(=O)[C@H](CC(C)C)NC(=O)[C@H](CC(C)C)NC(=O)[C@H](CCC(N)=O)NC(=O)[C@@H](NC(=O)[C@@H]1CCCN1C(=O)[C@H](CC(C)C)NC(=O)[C@H](CC(=O)O)NC(=O)[C@@H](NC(=O)[C@H](CO)NC(=O)[C@@H](NC(=O)[C@@H]1CCCN1C(=O)[C@@H]1CCCN1C(=O)CNC(=O)[C@@H]1CCC(=O)N1)[C@@H](C)CC)[C@@H](C)CC)[C@@H](C)O)[C@@H](C)CC)[C@@H](C)CC)[C@@H](C)O)C(N)=O` [compound 72] were, in that order, greater than 100 nM and greater than 100 nM.
As to `CC[C@H](C)[C@H](NC(=O)[C@@H](NC(=O)[C@H](CC(=O)O)NC(=O)[C@H](CC(C)C)NC(=O)[C@H](CC(C)C)NC(=O)[C@H](CC(C)C)NC(=O)[C@H](CCCNC(=N)N)NC(=O)[C@H](CC(N)=O)NC(=O)[C@H](CC(N)=O)NC(=O)[C@H](C)NC(=O)[C@H](C)NC(=O)[C@H](CCC(N)=O)NC(=O)[C@H](CCC(N)=O)NC(=O)[C@H](CCCCN)NC(=O)[C@H](CCC(=O)O)NC(=O)[C@H](CCCCN)NC(=O)[C@H](CCC(=O)O)NC(=O)[C@H](CCC(N)=O)NC(=O)[C@H](CCCCN)NC(=O)[C@H](CCC(=O)O)NC(=O)[C@@H](NC(=O)[C@H](CCC(=O)O)NC(=O)[C@@H](NC(=O)[C@H](CCSC)NC(=O)[C@H](CCCCN)NC(=O)[C@H](CCCNC(=N)N)NC(=O)[C@H](CC(C)C)NC(=O)[C@H](CC(C)C)NC(=O)CNC(=O)[C@@H](NC(=O)[C@@H]1CCCN1C(=O)[C@H](CC(C)C)NC(=O)[C@H](CC(=O)O)NC(=O)[C@@H](NC(=O)[C@H](CO)NC(=O)[C@@H](NC(=O)[C@@H]1CCCN1C(=O)[C@@H]1CCCN1C(=O)CNC(=O)[C@@H]1CCC(=O)N1)[C@@H](C)CC)[C@@H](C)CC)[C@@H](C)O)[C@@H](C)CC)[C@@H](C)CC)[C@@H](C)O)C(N)=O` [compound 73], the concentration giving a half-maximal response (EC50) on CRF2R and on CRF1R was greater than 100 nM throughout.
As to `CC[C@H](C)[C@H](NC(=O)[C@@H](NC(=O)[C@H](CC(=O)O)NC(=O)[C@H](CC(C)C)NC(=O)[C@H](CC(C)C)NC(=O)[C@H](CC(C)C)NC(=O)[C@H](CCCNC(=N)N)NC(=O)[C@H](CC(N)=O)NC(=O)[C@H](CC(N)=O)NC(=O)[C@H](C)NC(=O)[C@H](C)NC(=O)[C@H](CCC(N)=O)NC(=O)[C@H](CCC(N)=O)NC(=O)[C@H](CCCCN)NC(=O)[C@H](CCC(=O)O)NC(=O)[C@H](CCCCN)NC(=O)[C@H](CCC(=O)O)NC(=O)[C@H](CCC(N)=O)NC(=O)[C@H](CCCCN)NC(=O)[C@H](CCC(=O)O)NC(=O)[C@@H](NC(=O)[C@H](CCC(=O)O)NC(=O)[C@@H](NC(=O)[C@H](CCSC)NC(=O)[C@H](CCCCN)NC(=O)[C@H](CCCNC(=N)N)NC(=O)[C@H](CC(C)C)NC(=O)[C@H](CC(C)C)NC(=O)CNC(=O)[C@@H](NC(=O)[C@@H]1CCCN1C(=O)[C@H](CC(C)C)NC(=O)[C@H](CC(=O)O)NC(=O)[C@@H](NC(=O)[C@H](CO)NC(=O)[C@@H](NC(=O)[C@@H]1CCCN1C(=O)[C@@H]1CCCN1C(=O)CNC(=O)[C@@H]1CCC(=O)N1)[C@@H](C)CC)[C@@H](C)CC)[C@@H](C)CC)[C@@H](C)CC)[C@@H](C)CC)[C@@H](C)O)C(N)=O` [compound 75], the concentration giving a half-maximal response (EC50) on CRF2R and on CRF1R was greater than 100 nM throughout.
Consider `CC[C@H](C)[C@H](NC(=O)[C@H](CCCNC(=N)N)NC(=O)[C@H](C)NC(=O)[C@H](CC(N)=O)NC(=O)[C@@H](NC(=O)[C@@H](NC(=O)[C@H](C)NC(=O)[C@H](CCC(N)=O)NC(=O)[C@H](CCC(N)=O)NC(=O)[C@H](CCCCN)NC(=O)[C@H](CCC(=O)O)NC(=O)[C@H](CCCCN)NC(=O)[C@H](CCC(=O)O)NC(=O)[C@H](CCC(N)=O)NC(=O)[C@H](CCCCN)NC(=O)[C@H](CCC(=O)O)NC(=O)[C@@H](NC(=O)[C@H](CCC(=O)O)NC(=O)[C@@H](NC(=O)[C@H](CCSC)NC(=O)[C@H](CCCCN)NC(=O)[C@H](CCCNC(=N)N)NC(=O)[C@H](CC(C)C)NC(=O)[C@H](CC(C)C)NC(=O)[C@H](Cc1ccc(O)cc1)NC(=O)[C@@H](NC(=O)[C@@H]1CCCN1C(=O)[C@H](CC(C)C)NC(=O)[C@H](CC(=O)O)NC(=O)[C@@H](NC(=O)[C@H](CO)NC(=O)[C@@H](NC(=O)[C@@H]1CCCN1C(=O)[C@@H]1CCCN1C(=O)CNC(=O)[C@@H]1CCC(=O)N1)[C@@H](C)CC)[C@@H](C)CC)[C@@H](C)O)[C@@H](C)CC)[C@@H](C)CC)[C@@H](C)O)[C@@H](C)O)C(=O)N[C@@H](CC(C)C)C(=O)N[C@@H](C)C(=O)N[C@@H](CCCNC(=N)N)C(=O)N[C@H](C(N)=O)C(C)C` [compound 151], for which the values for the EC50 on CRF2R and at CRF1R were 36.8 nM and no less than 1000 nM, respectively.
As to `CC[C@H](C)[C@H](NC(=O)[C@H](CCCNC(=N)N)NC(=O)[C@H](C)NC(=O)[C@H](CC(N)=O)NC(=O)[C@@H](NC(=O)[C@@H](NC(=O)[C@H](C)NC(=O)[C@H](CCC(N)=O)NC(=O)[C@H](CCC(N)=O)NC(=O)[C@H](CCCCN)NC(=O)[C@H](CCC(=O)O)NC(=O)[C@H](CCCCN)NC(=O)[C@H](CCC(=O)O)NC(=O)[C@H](CCC(N)=O)NC(=O)[C@H](CCCCN)NC(=O)[C@H](CCC(=O)O)NC(=O)[C@@H](NC(=O)[C@H](CCC(=O)O)NC(=O)[C@@H](NC(=O)[C@H](CC(C)C)NC(=O)[C@@H](NC(=O)[C@H](CCCNC(=N)N)NC(=O)[C@H](CC(C)C)NC(=O)[C@H](CC(C)C)NC(=O)[C@H](Cc1ccc(O)cc1)NC(=O)[C@@H](NC(=O)[C@@H]1CCCN1C(=O)[C@@H](NC(=O)[C@H](CC(=O)O)NC(=O)[C@@H](NC(=O)[C@H](CO)NC(=O)[C@@H](NC(=O)[C@@H]1CCCN1C(=O)[C@@H]1CCCN1C(=O)CNC(=O)[C@@H]1CCC(=O)N1)[C@@H](C)CC)[C@@H](C)CC)C(C)C)[C@@H](C)O)[C@@H](C)CC)[C@@H](C)CC)[C@@H](C)CC)[C@@H](C)O)[C@@H](C)O)C(=O)N[C@@H](CC(C)C)C(=O)N[C@@H](C)C(=O)N[C@@H](CCCNC(=N)N)C(=O)N[C@H](C(N)=O)C(C)C` [compound 169], the EC50 at CRF2R amounted to 17.8 nM; at CRF1R, 978 nM.

The values are drawn from patent US7632933B2, “Corticotropin releasing factor 2 receptor agonists” (priority 2002, dated 2009).
